Molecules are shown by their SMILES.

The results in this text go back to patent publication US20250051264A1, “CANNABIDIOL DERIVATIVE, PREPARATION METHOD THEREFOR AND APPLICATION THEREOF” (DEYI PHARMACEUTICAL LTD., priority 2021, published 2025).

The subject of this test is dopamine in striatum. Briefly: Content of dopamine in brain striatum by the kit method (ELISA) in the MPTP mouse model of Parkinson's disease. The conditions noted are these: after 14 days intragastric treatment (compound 3 100 mg/kg; amantadine 40 mg/kg); blank 0.71 ± 0.16, model 0.30 ± 0.07. Format: in vivo, C57/BL6 mice. The method, then:
(2) MPTP (25 mg/kg) was intraperitoneally injected once a day for 7 consecutive days. The blank group was left untreated.
(3) After modeling, administration was started. The positive drug group was subjected to intragastric administration of amantadine (40 mg/kg), and the compound group was subjected to intragastric administration of compound 3 (prepared in Example 1) at a determined dose (100 mg/kg). The intragastric administration was performed once a day for 14 consecutive days.
After the mice were sacrificed quickly, the brains of the mice were taken and the cerebral palliums (CPs) of the mice were isolated. After exposing the brain striatum of the mice, the striatum was weighed and homogenized after adding PBS according to a proportion. The supernatant was isolated and detected for the content of dopamine in the brain striatum. […]
(4) The microplate was shaken on a shaker for 30 s, left to stand at 37° C. for 30 min, and subsequently measured for absorbance at 562 nm. A standard curve was plotted with the absorbance value as an abscissa and the protein concentration (μg/μL) as an ordinate.
(5) 2 μL of test protein and 18 μL of PBS (10-fold dilution) were added to the microplate, 160 μL of BCA working solution was added, and the microplate was shaken on a shaker for 30 s, left to stand at 37° C. for 30 min, and subsequently measured for the absorbance at 562 nm. […]

`NC12CC3CC(CC(C3)C1)C2` [Positive drug, amantadine, reference compound]: the “DA content of dopamine in striatum after treatment” value is on record as 0.61 ± 0.12 ng/mg.
